# According to patent US20100143995A1, “Process for Fermentive Preparation of Alcohols and Recovery of Product” (E. I. DU PONT DE NEMOURS AND COMPANY, priority 2008, published 2010):
# Experiments:
# [1] = Extraction of isobutanol from an aqueous solution by ionic liquid (HPLC); format: physicochemical; conditions: isobutanol in aqueous solution after mixing 3 mL of about 31 g/L isobutanol with 150 microliters (5 vol %) ionic liquid, overnight equilibration; control 436
# Experimental: (§1) The extraction of ethanol and isobutanol from an aqueous solution by the ionic liquids used in Examples 1˜8 was evaluated. 3 mL of an aqueous solution containing about 31 g/L of ethanol or isobutanol was mixed with 150 microliters (5 vol %) of the indicated ionic liquid in an airtight vial with minimal headspace. Ethanol and isobutanol concentration in the solution was measured using HPLC as described above following thorough mixing and overnight equilibration of the contents of the vial.
# (§2) The amount of alcohol extracted to the ionic liquid phase was calculated as a percentage of the amount of alcohol remaining in the solution in the control, which had no ionic liquid phase but was processed experimentally under the same conditions. In some cases, about 3˜13% of isobutanol was extracted even though only 5% (V/V) of ionic liquid was used as the second phase.
# [2] = Extraction of ethanol from an aqueous solution by ionic liquid (HPLC); format: physicochemical; conditions: ethanol in aqueous solution after mixing 3 mL of about 31 g/L ethanol with 150 microliters (5 vol %) ionic liquid, overnight equilibration; control 655
# Experimental: as §1, §2
substance,measurement,setting,value
1-Ethyl-3-methylimidazolium levulinate [Example 1],mM isobutanol,[1],415 mM
same,mM Ethanol,[2],628 mM
